# Measured affinities in a library of Ab-14 light chain variants

The target is the same throughout: PDVDLGDISGINAS, from the HR2 region of SARS-CoV-2 spike.

Parent: Ab-14, a human scFv built as VH, three GGGGS repeats, VL. Only the CDRs of the light chain vary.
VH: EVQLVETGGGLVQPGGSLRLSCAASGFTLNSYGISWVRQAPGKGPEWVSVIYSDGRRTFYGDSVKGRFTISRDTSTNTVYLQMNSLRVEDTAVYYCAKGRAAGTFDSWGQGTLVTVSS
VL: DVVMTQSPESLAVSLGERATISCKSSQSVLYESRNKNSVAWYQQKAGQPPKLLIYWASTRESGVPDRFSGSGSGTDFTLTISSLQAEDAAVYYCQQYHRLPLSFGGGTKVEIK

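The parent was found by panning a naive human phage display library on the peptide. These sequences belong to a second round, designed from the earlier measurements on random variants of the parent. Their group label is 14L_En_Gen (En: ensemble of fine-tuned language models; Gen: genetic algorithm). AlphaSeq pools MATa yeast showing the antibodies with MATalpha yeast showing the peptide. After mating in shaken culture at 30 °C for 16 h, diploids were selected and their barcode pairs sequenced. Each replicate has its own calibration line, from reference interactions of the BCL2 family. Each pool was mated in six replicate cultures.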

The parent's light chain CDRs are KSSQSVLYESRNKNSVA, WASTRES, QQYHRLPLS; each variant's own CDRs replace them letter for letter. Affinities are written as log10 Kd with Kd in nM; a lower number is a better binder. "ND" means that the variant was in the library but no mating with the target was seen in that replicate; the authors take this as a sign of poor binding, and no number exists. The parent sequence was in this pool as ten entries: three were never detected, three once, and four in most replicates, with averages from 0.34 to 2.37.

CDR-L1	CDR-L2	CDR-L3	log10 Kd (nM) by replicate	control signals
IVSQVMSWGLHAKNSIA	EAQTRIN	QQYDRLPLF	1.98 / 0.66 / 0.90 / 0.66 / 1.45 / 0.93	2 of 18 (2.09)
MISQLMNMGTFAINSVA	QASIRNE	QQYDRLPLI	0.39 / 0.36 / 0.36 / 0.41 / 0.31 / 0.81	1 of 18 (2.83)
MISQIYNMGQFAINSVA	QASQRNA	QQYDRLPLM	0.91 / 1.04 / 1.06 / 0.98 / 1.17 / 1.38	0 of 18
KLSGLMASSKFIKNNVA	ENNTRED	QQYDRLPLS	ND / ND / ND / ND / ND / ND	1 of 18 (1.41)
TISQMSTLFSQSINNVA	EVSTREE	QQYDRLPLG	1.25 / 0.67 / 0.63 / 0.90 / 1.25 / 1.28	0 of 18
MISQLMNMGQFAINSVA	QANIRNS	QQYDRLPLM	ND / ND / ND / ND / ND / ND	0 of 18
IVSQLMVWGMHAKNSIA	EGETRLN	QQYDRLPLF	ND / 1.10 / 0.73 / 3.17 / 1.32 / 1.62	0 of 18
TIGGTLMYGMRNRSNVA	EVSQRLN	QQYDRLPLV	1.08 / 0.93 / 1.35 / 1.62 / 1.45 / 1.47	0 of 18
QLSGITGHMSMIKNNVA	EMETREN	QQYERLPLS	0.63 / 0.90 / 0.91 / 0.61 / 0.41 / 0.73	0 of 18
TISQLMNMGQFAINSVA	QASIRNS	QQYDRLPLI	2.46 / 1.61 / 1.25 / 1.81 / 0.84 / 3.28	1 of 18 (1.69)
TISQVMNTLTRNTNNVA	DLTEREK	QQYFRLPLT	-0.09 / -0.09 / 0.10 / -0.04 / -0.02 / 0.07	1 of 18 (3.27)
KVSSFMRGLMMRKDSIA	DNETRNS	QQYDRLPLS	2.42 / ND / ND / 2.39 / 2.61 / 2.23	0 of 18
KIGGTLNTLMHQKNNVA	DLVMREN	QQYHRLPLS	0.38 / 0.32 / 0.20 / 0.05 / 0.17 / 0.36	0 of 18
MVTQMAMSGMTNKRSVA	NAETREA	QQYHRLPLI	0.35 / 0.75 / 0.36 / 0.58 / 0.70 / 0.89	0 of 18
KISQMVRVGSTHVNSIA	EEVTRAK	QQYHRLPLA	0.85 / 0.99 / 1.04 / 0.95 / 1.20 / 0.90	0 of 18
MISQLMNMGQFAINSVA	QASLRYN	QQYDRLPLT	1.36 / ND / ND / ND / ND / ND	0 of 18
IISELYNQAAGMRNNVA	NNQTRED	QQYDRLPLS	ND / ND / ND / ND / ND / ND	0 of 18
MVTQMAMTGMTNKRSVA	NAETREN	QQYHRLPLI	0.15 / 0.47 / 0.45 / 0.28 / 1.04 / 0.68	0 of 18
HITMGMYVSGRYKSNIA	QAETREK	QQYDRLPLI	1.14 / 0.98 / 0.63 / 0.87 / 0.49 / 1.20	0 of 18
MISQLYNMGQFAINSVA	QASLRCN	QQYDRLPLA	ND / 2.02 / ND / 2.18 / ND / ND	0 of 18
HITYGMMVHGRHMESIA	QAEERAK	QQYDRLPLS	0.77 / 0.91 / 0.90 / 0.64 / 0.66 / 0.62	2 of 18 (2.07)
HMSMLTLQGMRARNSVA	QMTTREN	QQYDRLPLA	0.27 / 0.52 / 0.14 / 0.04 / 0.04 / 0.51	0 of 18
TVYESMDQAMRTHNSIA	DNQTRES	QQYDRLPLS	ND / ND / 2.02 / 2.09 / ND / 2.84	1 of 18 (3.51)
QIYQAMHTLMQQKNNVA	DVTNRTK	QQYFRLPLS	0.64 / 0.31 / 0.54 / 0.46 / 0.58 / 1.10	0 of 18
MISQLYNMGSFAINSVA	QASIRNS	QQYDRLPLM	1.36 / 0.93 / 1.13 / 2.13 / 1.27 / 1.00	1 of 18 (1.64)
KISQMVKVGSTHSNSIA	EEETRAS	QQYHRLPLA	1.23 / 0.64 / 1.06 / 0.63 / 1.21 / 0.83	1 of 18 (3.19)
KLVNFMNRGTHHTSNIA	DAQNRID	QQYFRLPLA	-0.04 / 0.04 / -0.26 / 0.37 / -0.48 / 0.29	0 of 18
HLGYATMLEEYVRNSVA	NNSTREK	QQYDRLPLS	ND / 3.30 / ND / 3.48 / 4.59 / 3.99	1 of 18 (3.91)
MISQVMNTLTRHGQNVA	DLSERED	QQYFRLPLS	1.14 / 0.67 / 0.49 / 0.73 / 1.33 / 0.84	1 of 18 (2.90)
MISSLYNMGQFAINSVA	QASERNE	QQYDRLPLI	1.78 / 2.25 / ND / 2.42 / 1.66 / 2.68	0 of 18
MVNGIMDHLSKNTNNVA	ETSTRGS	QQYDRLPLS	0.60 / 0.83 / 0.92 / 0.19 / 0.45 / 0.55	1 of 18 (2.54)
KIGQLLMLEQYRKNNVA	GTETRVT	QHYHRLPLS	ND / 1.26 / ND / ND / 2.65 / ND	1 of 18 (2.20)
TLYGLTNSMSKNKDSVA	EMSTREA	QQYDRLPLA	1.01 / 1.22 / 0.69 / 0.89 / 1.14 / 1.13	2 of 18 (3.50)
KIGMTLNQLLHKQNNVA	DLVMREN	QQYHRLPLS	ND / 2.06 / 1.76 / 0.76 / 1.50 / 1.77	1 of 18 (1.43)
MISQIYNMGTFAINSVA	QASLRND	QQYDRLPLM	ND / 2.67 / 1.57 / 2.05 / 2.22 / 1.94	1 of 18 (1.73)
IVSQLMLWGKSAKNSIA	EAVTRLN	QQYDRLPLF	1.02 / 0.85 / 1.49 / 1.33 / 1.07 / 1.33	1 of 18 (2.14)
KLANVTGTEKVRGNNVA	EMETRER	QQYNRLPLS	0.70 / 0.60 / 0.68 / 0.74 / 0.57 / 0.73	1 of 18 (2.43)
TISQVMNTLTRHGNNVA	DLTEREV	QQYFRLPLS	ND / 1.75 / 0.57 / ND / 1.43 / 2.03	0 of 18
HITMGMYVKGRYHSSIA	QAETRAK	QQYDRLPLI	1.03 / 1.12 / ND / ND / ND / ND	0 of 18
MLSEVLHMLGVQKNAIA	DLVLRAN	QQYHRLPLM	ND / ND / ND / ND / ND / ND	0 of 18
KIGMTLNTLMHQKNNVA	DLVEREN	QQYHRLPLS	0.11 / 0.11 / -0.06 / 0.13 / 0.06 / 0.52	0 of 18
MISQLTNMGQFAINSVA	QASERSN	QQYDRLPLI	1.69 / 1.79 / 1.27 / 1.71 / 1.38 / 1.63	0 of 18
QLYEMMQELSGKVHSVA	DNSTRGD	QQYFRLPLD	1.70 / 2.73 / 1.59 / 1.89 / 1.90 / 2.03	0 of 18
KLGMTLNTLYEKKNNVA	DLVTREN	QQYHRLPLS	0.18 / 0.40 / 0.34 / 0.86 / 0.24 / 0.42	0 of 18
HMSALTLQGMKHRNSVA	QMTTREK	QQYDHLPLS	0.68 / 0.56 / 0.54 / 0.32 / 0.53 / 0.56	4 of 18 (3.56)
KLSMITGHQLMSKNNVA	EMVTREN	QQYNRLPLS	0.36 / 0.28 / 0.46 / 0.79 / 0.34 / 0.42	1 of 18 (2.37)

The last 3 entries again:

{"CDR-L1": "KLGMTLNTLYEKKNNVA", "CDR-L2": "DLVTREN", "CDR-L3": "QQYHRLPLS", "log10 Kd (nM) by replicate": "0.18 / 0.40 / 0.34 / 0.86 / 0.24 / 0.42", "control signals": "0 of 18"}
{"CDR-L1": "HMSALTLQGMKHRNSVA", "CDR-L2": "QMTTREK", "CDR-L3": "QQYDHLPLS", "log10 Kd (nM) by replicate": "0.68 / 0.56 / 0.54 / 0.32 / 0.53 / 0.56", "control signals": "4 of 18 (3.56)"}
{"CDR-L1": "KLSMITGHQLMSKNNVA", "CDR-L2": "EMVTREN", "CDR-L3": "QQYNRLPLS", "log10 Kd (nM) by replicate": "0.36 / 0.28 / 0.46 / 0.79 / 0.34 / 0.42", "control signals": "1 of 18 (2.37)"}

Three control strains display no target. For all light chain designs, 4% of the pairings with them gave a signal, with a median of 2.64 and one signal in twenty below 1.59, so weak values seen in few replicates may be background. The control count says in how many pairings with the empty strains this scFv gave a signal, with their mean in brackets. The authors' rule: three or more of the six replicates give a measured affinity, fewer mean a poor binder. A sequence measured in both rounds can read differently, since the two assays cover different ranges.

The measurements come from Li et al. 2023 (doi:10.1038/s41467-023-39022-2) through the FLAb antibody collection.